Measured values reported in patent publication US4371523A, “Reducing the aggregation of insulin in solution” (The Regents of the University of California, priority 1980, dated 1983).

By UniProt entry, the sequences of proteins in these tests, tags left out. Residues count along the entry.
UniProt P01315, 25-54 limits assumed: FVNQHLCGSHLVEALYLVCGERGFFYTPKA
UniProt P01315, 88-108 limits assumed: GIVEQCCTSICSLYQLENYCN

Assays:
[1] = test system: insulin; conditions: supplemental material added to insulin solution; cited from earlier work
[2] = target: T1, single component neutral pork zinc insulin (Sus scrofa, UniProt P01315); assay: Controlled shaking of zinc insulin solutions in test tubes, optical density at 600 nm; format: physicochemical; conditions: zinc insulin 50 U/ml, pH 7.4, shaken 16 days at 37° C., OD at 600 nm; higher OD = greater aggregation
T1 construct: single component, neutral, pork, zinc-insulin (U.500 regular Iletin II., Eli Lilly & Company); purchased Eli Lilly & Company U.500 regular Iletin II

| Molecule | Effect in preventing the aggregation of insulin in solution over extended periods of time [1] | Optical Density ± 1 × SE [2] |
| --- | --- | --- |
| Cl [hydrochloric acid] | do not appear to have any appreciable effect | – |
| Albumin: Albumin added at 5% to the zinc insulin solution | – | 0.49 ± 0.05 |
